Values quoted from earlier work as cited in patent publication US12178829B2, “Altering net charge on mannosylated dextrans to maximize target tissue uptake and off target competitive blocking” (Navidea Biopharmaceuticals, Inc., priority 2022, dated 2024).

Conditions: in humans, injected into the blood

In the case of “dextran 3-[(2-aminoethyl)thio]propyl 17-carboxy-10,13,16-tris(carboxymethyl)-8-oxo-4-thia-7,10,13,16-tetraazaheptadec-1-yl 3-[[2-[[1-imino-2-(D-mannopyranosylthio)ethyl]amino]ethyl]thio]propyl ether complexes [tilmanocept]”, the blood half-life is given as “about 20 minutes”.
